The conditions of assay [1]: Wang et al., 2018; cited from earlier work.
Assay [2] relates to HLA-DQ8 monomers. The assay is described as follows: Gentle SDS-PAGE assay of peptide binding to DQ8. The following applies: 100 μM peptide, 0.5 μM HLA-DQ8 monomers, 37° C., 72 h, pH 5.5. Details: species or system human. The procedure: Analysis of x-Id peptide binding to DQ8 using gentle SDS-PAGE assay. Gentle SDS-PAGE was used to assess formation of stable complexes between peptides and HLA-DQ8 molecules as previously described (Kim et al., 2013; Sadegh-Nasseri and Germain, 1991). Briefly, 0.5 μM of HLA-DQ8 monomers (provided by NIH tetramer core facility) were treated with thrombin to cleave and remove CLIP peptide. Empty monomers were incubated in the absence or presence of 100 μM of indicated peptides (x-Id, TP-Id, mimotope (R22E), native insulin B:9-23, and h-Id) at 37° C. for 72 h in citrate phosphate buffer, pH 5.5 with 1 mM PMSF and 0.025% NaN3. Reactions were neutralized, mixed with equal volumes of SDS-PAGE sample buffer containing 0.1% SDS (final concentration) and placed for 15 min at room temperature and run on 10% PAGE gels and silver-stained using a standard protocol.

These results are taken from patent US20220073963A1, “COMPOSITIONS AND METHODS FOR DETECTING AND TREATING TYPE 1 DIABETES AND OTHER AUTOIMMUNE DISEASES” (THE JOHNS HOPKINS UNIVERSITY, priority 2018, published 2022).

Turning to “mimotope: insulin B:9-23 with arginine at P9 substituted by glutamic acid (R22E)”, the “potency relative to native insulin B:9-23” value in assay [1] is reported as 100 fold. Also, in assay [2], the “formation of SDS-stable complexes with soluble DQ8” value is “forming SDS-stable complexes”.
